# The entries are a selection whose mix differs from that of the whole data set. Inconclusive results are not listed. Active and inactive are the calls of the source. Calls follow the shape of the dose curve; as a rule, active = well fitted inhibition curve with a large enough effect; inconclusive = small, poorly fitted or top-dose-only effect; inactive = flat fitted curve, though single readings scatter.
# Molecular target: Dual specificity tyrosine-phosphorylation-regulated kinase 1A (Homo sapiens) (UniProt Q13627)
# Test: Confirmation Assay for Inhibitors of Dyrk1a (Kinase-Glo Assay): KU probe
# Conditions: Kinase-Glo ATP luminescence
# Text: NIH Molecular Libraries Probe Production Centers Network [MLPCN] NIH Chemical Genomics Center [NCGC] MLSCN Grant: 1R03MH084827-01 PI Name: Tom Misteli NCGC Assay Overview: The CMGC group of protein kinases which includes CDK-like kinases (Clk) and Dyks are essential kinases found in all eukaryotes. Clks have been implicated to play a role in the regulation of alternative splicing; while Dyrks, in particular over expression of Dyrk1A, has been linked to diseases as Down syndrome (DS; OMIM 190685) and Alzheimer disease (AD; OMIM 104300). Among the members of the CMGC group, the Clks and the Dyrks are very closely related therefore to determine validity and selectivity of an active compound observed in the CLK4 qHTS screen (AID:1770), a bioluminescent counter-screen against Dyrk1A was developed. […]
# NCGC Assay Protocol Summary: Two uL/well of substrate solution (8uM Dyrktide, 2uM ATP, 25mM Tris-HCl pH 7.5, 10mM MgCl2 , 0.5mM EGTA, 5mM cystein, 0.01% Triton X-100 final concentration) was dispensed into 1536-well assay plates (Greiner, solid white, medium-binding plates) with Aurora Discovery BioRAPTR Flying Reagent Dispenser (FRD, Beckton-Dickenson). […] The plates were spun for 30 seconds (1000 rpm) and incubated at ambient temperature for 2 minutes followed by a luminescence read using Perkin Elmer ViewLux plate reader at 3 seconds exposure time and 2x binning.
compound,measurement,value
CCN1/C(=C/C(C)=O)Sc2ccc(OC)cc21,Potency,active: 368 nM
